Reference: ChEMBL document CHEMBL5725200, “(Hetero)aryl cyclopropylamine compounds as LSD1 inhibitors” (2016)

The chains behind the UniProt entries cited, without tags or fusion partners.
UniProt P27338, whole entry: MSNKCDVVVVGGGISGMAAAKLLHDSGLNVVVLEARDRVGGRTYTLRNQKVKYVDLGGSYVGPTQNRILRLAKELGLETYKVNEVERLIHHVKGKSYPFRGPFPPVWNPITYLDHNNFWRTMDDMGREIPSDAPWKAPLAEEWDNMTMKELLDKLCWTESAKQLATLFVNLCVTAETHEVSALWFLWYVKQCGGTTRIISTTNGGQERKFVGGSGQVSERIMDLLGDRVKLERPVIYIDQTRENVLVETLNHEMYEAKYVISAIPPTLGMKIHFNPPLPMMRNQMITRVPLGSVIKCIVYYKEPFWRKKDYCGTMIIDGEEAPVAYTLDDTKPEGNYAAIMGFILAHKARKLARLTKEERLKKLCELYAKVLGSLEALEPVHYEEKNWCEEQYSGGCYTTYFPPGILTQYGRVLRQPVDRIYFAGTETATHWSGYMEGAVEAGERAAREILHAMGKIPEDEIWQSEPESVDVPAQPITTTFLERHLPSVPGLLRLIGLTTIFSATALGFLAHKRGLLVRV

Target: Amine oxidase [flavin-containing] B (Homo sapiens, UniProt P27338)

For `c1ccc([C@@H]2C[C@H]2NC2CCNCC2)cc1`, the Ki was over 100 µM.
